The values that follow are results of earlier work, collected in US20130032547A1, “STABILIZATION AND DISINFECTION OF WASTES USING HIGH ENERGY E-BEAM AND CHEMICAL OXIDANTS” (priority 2011, published 2013).

The test system of this series is endocrine disrupting activity. The note with it: studies at Tulane University; cited from earlier work.

chlorine: the “increase in endocrine disrupting activity after treatment” value is recorded as “about 70%”.
